Measured values from US12509496B2 (Shanghai Minwei Biotechnology Co., LTD, priority 2020, dated 2025).

By UniProt entry, the sequences of proteins in these tests, tags left out. Residues count along the entry.
UniProt P43220, 24-463: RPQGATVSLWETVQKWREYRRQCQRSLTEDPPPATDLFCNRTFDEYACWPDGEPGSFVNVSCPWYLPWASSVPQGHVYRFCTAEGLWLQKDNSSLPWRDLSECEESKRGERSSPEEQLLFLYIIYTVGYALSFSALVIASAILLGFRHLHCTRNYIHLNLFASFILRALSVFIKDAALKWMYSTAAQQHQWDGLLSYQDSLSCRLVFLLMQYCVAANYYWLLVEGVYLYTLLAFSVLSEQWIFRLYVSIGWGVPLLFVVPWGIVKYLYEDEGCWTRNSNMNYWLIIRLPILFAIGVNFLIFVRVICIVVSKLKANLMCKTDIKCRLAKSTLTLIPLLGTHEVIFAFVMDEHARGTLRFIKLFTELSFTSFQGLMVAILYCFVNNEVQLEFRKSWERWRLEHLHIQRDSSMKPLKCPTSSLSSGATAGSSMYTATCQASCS

Biological target: T1, human GLP-1R (Homo sapiens, UniProt P43220)
T1 construct: expressed in transfected cells; host or cells: CHO-K1 cells (with CRE-luciferase reporter)
Assay: In vitro GLP-1 activity of fusion proteins, CHO-K1 CRE-luciferase
Format: cell-based
Conditions: read-out: EC50 human GLP-1R, CHO-K1 cells, 5 hours incubation

Substance: Glucagon
- EC50: 15 nM
